pIC50: −log10 of the molar value.
What was measured:
[1] = molecular target: PDE 2A (Homo sapiens (Human), UniProt O00408); assay: Phosphodiesterase (PDE) 2A assay with fluorescent substrate (IMAP, fluorescence polarization); assay type: biochemical; details: labeled cAMP 30 nM, read-out: PDE2 IC50
Source text: (§1) a) Phosphodiesterase (PDE) 2A and 10 Assay with Fluorescent Substrate
(§2) The PDE reaction cleaves cAMP to AMP. The IMAP system (Molecular Device) using fluorescence polarization (FP) as detection principle was used to measure enzyme activity. A fluorescent labeled cAMP was used as substrate for the reaction, generating a labeled AMP. The fluorescent AMP binds specifically to the large M(III)-based nano-particles which reduces the rotational speed of the substrate and thus increases its polarization.
(§3) The inhibition of PDE 2A or 10 enzyme activity was assessed using IMAP-Phosphodiesterase-cAMP fluorescence labeled substrate (Molecular Devices, Order No. R7506), IMAP TR-FRET screening express (Molecular Devices, Order No. R8160, the TR-FRET component will not be used) and PDE 2A or PDE10 protein expressed upon baculovirus infection in SF9 cells. The cells were incubated after infection for ˜3 days and protein production was confirmed by Western Blot. The cells were collected by centrifugation and the pellet frozen in liquid nitrogen before it was resuspended in PBS containing 1% Triton X-100 and protease inhibitors. After 45 min incubation on ice, the cell debris was removed by centrifugation (13.000 rpm, 30 min).
(§4) All reactions were performed in 384 well plates, Perkin Elmer black optiplates and IMAP reaction buffer with 0.1% Tween20 (kit component)
(§5) Compounds were serial diluted in DMSO. With an intermediate dilution step with reaction buffer DMSO concentration was reduced to achieve 1% DMSO in the assay reaction. Setup of the assay started with 10 μl enzyme (˜10 ng/well, depending on prep. batch), 5 μl compound, reaction was started by addition of 5 μl labeled cAMP (30 nM, final concentration), immediately mixed for 15 seconds on a Eppendorf mixmate (2000 rpm) followed by an incubation at room temperature for 90 minutes in the dark. Reaction is stopped by adding of 60 μl binding buffer for FP/cAMP (kit component). After at least 90 min of further incubation (room temperature, dark) the assay was measured at 485 nm excitation/525 nm emission in an Envision multilabel reader (PerkinElmer).
(§6) Each assay plate contained wells with vehicle controls (1% DMSO) for the measurement of non-inhibited reaction (=100% control) and wells without enzyme as 0% controls.
(§7) The analysis of the data was performed by calculation of the percentage of inhibition in the presence of test compound compared to the vehicle control samples (100% control, no inhibition) and a low control (0% control, no enzyme).
(§8) IC50 values are calculated with Assay Explorer or other suited software based on curve fitting of results of at least 8 different compound concentrations. The compound concentrations may vary according to the needed range, but typically cover the range between 10 μM and 0.1 pM.

Sequences of proteins named here, by UniProt entry; tags and fusion partners are left off. A change or cut given only in a name is not applied to a line headed by its entry.
UniProt O00408, whole entry, species assumed: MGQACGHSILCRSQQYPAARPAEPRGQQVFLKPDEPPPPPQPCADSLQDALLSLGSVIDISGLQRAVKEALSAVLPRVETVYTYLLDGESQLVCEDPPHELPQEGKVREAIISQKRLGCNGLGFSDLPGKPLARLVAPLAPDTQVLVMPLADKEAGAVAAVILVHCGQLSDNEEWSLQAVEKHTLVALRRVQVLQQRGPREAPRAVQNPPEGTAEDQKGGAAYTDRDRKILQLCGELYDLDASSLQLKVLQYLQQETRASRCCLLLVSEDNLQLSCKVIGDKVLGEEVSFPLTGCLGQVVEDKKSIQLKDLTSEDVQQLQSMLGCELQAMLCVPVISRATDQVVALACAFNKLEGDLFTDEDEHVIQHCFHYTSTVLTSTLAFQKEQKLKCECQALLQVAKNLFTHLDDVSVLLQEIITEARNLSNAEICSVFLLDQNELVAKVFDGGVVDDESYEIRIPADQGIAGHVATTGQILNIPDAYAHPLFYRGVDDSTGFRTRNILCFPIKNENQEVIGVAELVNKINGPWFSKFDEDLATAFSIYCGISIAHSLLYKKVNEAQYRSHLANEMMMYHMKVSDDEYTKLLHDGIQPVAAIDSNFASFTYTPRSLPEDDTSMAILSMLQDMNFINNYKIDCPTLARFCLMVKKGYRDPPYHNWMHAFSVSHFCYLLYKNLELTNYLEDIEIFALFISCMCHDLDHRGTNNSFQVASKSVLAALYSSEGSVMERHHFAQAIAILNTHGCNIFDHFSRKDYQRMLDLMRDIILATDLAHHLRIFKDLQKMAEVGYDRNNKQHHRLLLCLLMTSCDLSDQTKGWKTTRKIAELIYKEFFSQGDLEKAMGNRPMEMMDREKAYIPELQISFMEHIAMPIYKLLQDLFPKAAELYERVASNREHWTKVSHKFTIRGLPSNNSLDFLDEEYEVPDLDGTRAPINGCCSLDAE
UniProt Q9Y233: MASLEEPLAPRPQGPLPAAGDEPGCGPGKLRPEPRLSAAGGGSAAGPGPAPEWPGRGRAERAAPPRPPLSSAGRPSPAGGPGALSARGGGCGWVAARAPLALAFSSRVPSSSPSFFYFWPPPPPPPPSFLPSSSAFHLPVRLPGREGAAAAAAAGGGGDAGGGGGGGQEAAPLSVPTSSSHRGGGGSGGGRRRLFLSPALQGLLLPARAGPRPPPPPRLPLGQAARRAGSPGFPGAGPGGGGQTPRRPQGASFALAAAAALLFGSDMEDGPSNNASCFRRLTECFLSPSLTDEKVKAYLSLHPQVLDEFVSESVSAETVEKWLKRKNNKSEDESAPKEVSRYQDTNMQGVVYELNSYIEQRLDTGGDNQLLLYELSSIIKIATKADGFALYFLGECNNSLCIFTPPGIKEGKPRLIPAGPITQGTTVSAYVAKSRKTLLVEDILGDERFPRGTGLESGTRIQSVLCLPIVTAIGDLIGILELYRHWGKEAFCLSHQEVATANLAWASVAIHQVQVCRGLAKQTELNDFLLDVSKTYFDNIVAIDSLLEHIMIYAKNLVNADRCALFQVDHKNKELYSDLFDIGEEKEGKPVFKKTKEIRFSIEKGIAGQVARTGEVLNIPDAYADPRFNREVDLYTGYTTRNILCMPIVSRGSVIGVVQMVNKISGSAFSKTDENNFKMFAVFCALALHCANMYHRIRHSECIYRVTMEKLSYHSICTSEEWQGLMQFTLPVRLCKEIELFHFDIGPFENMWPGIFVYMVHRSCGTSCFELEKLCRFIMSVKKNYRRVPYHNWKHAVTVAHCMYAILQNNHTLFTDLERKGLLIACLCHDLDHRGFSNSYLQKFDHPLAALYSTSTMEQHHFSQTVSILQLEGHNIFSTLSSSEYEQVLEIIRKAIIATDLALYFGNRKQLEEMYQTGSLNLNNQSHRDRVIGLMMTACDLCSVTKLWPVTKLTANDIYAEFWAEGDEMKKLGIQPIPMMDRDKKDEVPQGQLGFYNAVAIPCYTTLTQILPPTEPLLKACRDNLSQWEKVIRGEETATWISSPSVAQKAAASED

[2] = molecular target: PDE10 (Homo sapiens (Human), UniProt Q9Y233); assay: Phosphodiesterase (PDE) 10 assay with fluorescent substrate (IMAP, fluorescence polarization); assay type: biochemical; details: labeled cAMP 30 nM
Source text: as §1, §2, §3, §4, §5, §6, §7, §8

SMILES	pIC50 [1]	pIC50 [2]
O=C(NC1(c2ccc(C(F)(F)F)cc2F)CCCOC1)c1cnn2cc(C3CC3)cnc12 (racemic) [Example 30]	7.92	< 5.00
Cc1cnc2c(C(=O)NC3(c4ccc(C(F)(F)F)cc4)CCOC3)cnn2c1 (racemic) [Example 36]	6.74	–
Cc1nn2cc(C3CC3)cnc2c1C(=O)NC1(c2ncc(C(F)(F)F)cc2F)CCOC1 (racemic) [Example 40]	7.08	–
Cc1cnc2c(C(=O)NC3(c4ncc(C(F)(F)F)cc4F)CCOC3)c(C)nn2c1 (racemic) [Example 41]	–	5.10
Cc1cnc2c(C(=O)NC3(c4ccc(C(F)(F)F)nc4)CCOC3)c(C)nn2c1 (racemic) [Example 43]	–	5.16
Cc1cnc2c(C(=O)NC3(c4ccc(C(F)(F)F)cn4)CCOC3)c(C)nn2c1 (racemic) [Example 44]	–	5.01
Cc1nn2cc(C3CC3)cnc2c1C(=O)NC1(c2ccc(C(F)(F)F)cn2)CCOC1 (racemic) [Example 45]	6.62	–
Cc1cnc2c(C(=O)NC3(c4ccc(C(F)(F)F)cc4F)CCOCC3O)cnn2c1 (racemic) [Example 46]	8.24	–
Cc1cnc2c(C(=O)NC3(c4ccc(C(F)(F)F)cc4F)CCOCC3O)cnn2c1 (racemic) [Example 47]	6.62	–
Cc1nn2cc(C3CC3)cnc2c1C(=O)NC1(c2ccc(C(F)(F)F)nc2)CCOCC1O (racemic) [Example 51]	7.23	5.04
CC1(O)COCCC1(NC(=O)c1cnn2cc(C3CC3)cnc12)c1ccc(C(F)(F)F)cc1F (racemic) [Example 53]	7.00	< 5.00
Cc1nn2cc(C3CC3)cnc2c1C(=O)NC1(c2ncc(C(F)(F)F)cc2F)CCOCC1(C)O (racemic) [Example 62]	–	5.15
Cc1cnc2c(C(=O)NC3(c4ccc(C(F)(F)F)cc4F)COCC3O)cnn2c1 (single isomer, unassigned) [Example 72]	6.91	–
Cc1cnc2c(C(=O)NC3(c4ccc(C(F)(F)F)cc4F)COCC3O)cnn2c1 (single isomer, unassigned) [Example 73]	5.94	–
Cc1cnc2c(C(=O)NC3(c4ccc(C(F)(F)F)cc4F)COCC3O)cnn2c1 (single isomer, unassigned) [Example 74]	5.60	–
Cc1cnc2c(C(=O)NC3(c4ccc(C(F)(F)F)cc4F)COCC3O)cnn2c1 (single isomer, unassigned) [Example 75]	7.38	–
Cc1nn2cc(C3CC3)cnc2c1C(=O)NC1(c2ncc(C(F)(F)F)cc2F)CCOC1 (single isomer, unassigned) [Example 80a]	6.50	–
Cc1nn2cc(C3CC3)cnc2c1C(=O)NC1(c2ncc(C(F)(F)F)cc2F)CCOC1 (single isomer, unassigned) [Example 80b]	7.12	–
Cc1cnc2c(C(=O)NC3(c4ccc(C(F)(F)F)cc4F)CCOCC3O)cnn2c1 (single isomer, unassigned) [Example 81a]	8.47	–
Cc1cnc2c(C(=O)NC3(c4ccc(C(F)(F)F)cc4F)CCOCC3O)cnn2c1 (single isomer, unassigned) [Example 81b]	6.83	–
Cc1cnc2c(C(=O)NC3(c4ccc(C(F)(F)F)cc4F)CCOCC3(C)O)cnn2c1 (single isomer, unassigned) [Example 83a]	8.23	< 5.00
Cc1cnc2c(C(=O)NC3(c4ccc(C(F)(F)F)cc4F)CCOCC3(C)O)cnn2c1 (single isomer, unassigned) [Example 83b]	5.74	< 5.00
Cc1cnc2c(C(=O)NC3(c4ccc(C(F)(F)F)cc4F)CCOCC3(C)O)cnn2c1 (single isomer, unassigned) [Example 84a]	6.92	< 5.00
Cc1cnc2c(C(=O)NC3(c4ccc(C(F)(F)F)cc4F)CCOCC3(C)O)cnn2c1 (single isomer, unassigned) [Example 84b]	5.55	< 5.00
CC1(O)COCCC1(NC(=O)c1cnn2cc(C3CC3)cnc12)c1ccc(C(F)(F)F)cc1F (single isomer, unassigned) [Example 85a]	6.89	< 5.00
CC1(O)COCCC1(NC(=O)c1cnn2cc(C3CC3)cnc12)c1ccc(C(F)(F)F)cc1F (stereo not drawn) [Example 54]	7.92	–
Cc1cnc2c(C(=O)NC3(c4ccc(C(F)(F)F)cc4F)CCOCC3(C)O)cnn2c1 (stereo not drawn) [Example 55]	7.68	< 5.00
Cc1cnc2c(C(=O)NC3(c4ccc(C(F)(F)F)cc4F)COCC3(C)O)cnn2c1 (stereo not drawn) [Example 58]	7.85	–

More lines, now with the values ahead:

pIC50 [1]	pIC50 [2]	SMILES
8.41	< 5.00	CC1(O)COCCC1(NC(=O)c1cnn2cc(C3CC3)cnc12)c1ccc(C(F)(F)F)cc1F (single isomer, unassigned) [Example 86a]
5.59	5.00	CC1(O)COCCC1(NC(=O)c1cnn2cc(C3CC3)cnc12)c1ccc(C(F)(F)F)cc1F (single isomer, unassigned) [Example 86b]
7.49	5.12	Cc1nn2cc(C3CC3)cnc2c1C(=O)NC1(c2ccc(C(F)(F)F)nc2)CCOCC1O (single isomer, unassigned) [Example 88a]
5.52	< 5.00	Cc1nn2cc(C3CC3)cnc2c1C(=O)NC1(c2ccc(C(F)(F)F)nc2)CCOCC1O (single isomer, unassigned) [Example 88b]
–	5.11	Cc1nn2cc(C3CC3)cnc2c1C(=O)NC1(c2ncc(C(F)(F)F)cc2F)CCOCC1(C)O (single isomer, unassigned) [Example 91a]
–	5.25	Cc1nn2cc(C3CC3)cnc2c1C(=O)NC1(c2ncc(C(F)(F)F)cc2F)CCOCC1(C)O (single isomer, unassigned) [Example 91b]
7.03	–	Cc1cnc2c(C(=O)NC3(c4ccc(C(F)(F)F)cc4F)COCC3(C)O)cnn2c1 (single isomer, unassigned) [Example 92a]
6.15	–	Cc1cnc2c(C(=O)NC3(c4ccc(C(F)(F)F)cc4F)COCC3(C)O)cnn2c1 (single isomer, unassigned) [Example 92b]
7.96	–	Cc1cnc2c(C(=O)NC3(c4ccc(C(F)(F)F)cc4F)COCC3(C)O)cnn2c1 (single isomer, unassigned) [Example 93a]
5.82	–	Cc1cnc2c(C(=O)NC3(c4ccc(C(F)(F)F)cc4F)COCC3(C)O)cnn2c1 (single isomer, unassigned) [Example 93b]

From patent US10023575B2, “Cyclic ether derivatives of pyrazolo[1,5-a]pyrimidine-3-carboxyamide” (Boehringer Ingelheim International GmbH, priority 2015, dated 2018)
